Reference: article PMC7046148 (Scientific Reports, 2020)

Amino acid sequences for entries named in this document (tags omitted).
UniProt Q9UJQ4, whole entry G416A: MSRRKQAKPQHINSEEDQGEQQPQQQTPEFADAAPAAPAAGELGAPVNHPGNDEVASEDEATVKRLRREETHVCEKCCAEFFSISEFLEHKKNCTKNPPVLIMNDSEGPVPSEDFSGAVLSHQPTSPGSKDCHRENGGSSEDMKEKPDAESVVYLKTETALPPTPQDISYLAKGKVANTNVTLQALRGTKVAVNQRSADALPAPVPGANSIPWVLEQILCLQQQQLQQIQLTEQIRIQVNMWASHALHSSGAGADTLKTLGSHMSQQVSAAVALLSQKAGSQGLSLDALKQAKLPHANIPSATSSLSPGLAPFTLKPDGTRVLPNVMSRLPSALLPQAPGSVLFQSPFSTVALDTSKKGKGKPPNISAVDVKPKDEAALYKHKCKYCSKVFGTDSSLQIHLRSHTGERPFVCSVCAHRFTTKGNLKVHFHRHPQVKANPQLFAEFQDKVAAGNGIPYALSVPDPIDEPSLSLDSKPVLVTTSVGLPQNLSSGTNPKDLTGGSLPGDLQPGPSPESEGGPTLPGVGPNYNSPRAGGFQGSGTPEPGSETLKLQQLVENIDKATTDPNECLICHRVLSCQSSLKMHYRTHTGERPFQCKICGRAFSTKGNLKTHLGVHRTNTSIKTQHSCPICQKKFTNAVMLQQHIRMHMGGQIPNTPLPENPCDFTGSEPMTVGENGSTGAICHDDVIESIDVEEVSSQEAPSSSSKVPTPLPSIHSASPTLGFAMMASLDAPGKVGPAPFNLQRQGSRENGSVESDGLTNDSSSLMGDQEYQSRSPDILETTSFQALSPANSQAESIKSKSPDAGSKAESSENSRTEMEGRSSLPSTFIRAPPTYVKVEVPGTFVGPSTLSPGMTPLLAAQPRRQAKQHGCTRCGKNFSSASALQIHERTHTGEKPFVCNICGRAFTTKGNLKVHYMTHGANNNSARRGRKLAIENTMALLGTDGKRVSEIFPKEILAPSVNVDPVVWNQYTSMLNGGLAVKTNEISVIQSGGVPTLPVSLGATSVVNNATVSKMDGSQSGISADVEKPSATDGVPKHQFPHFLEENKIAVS

Legend:
human SALL4 = target: T1, human SALL4 (Homo sapiens, UniProt Q9UJQ4); experiment: Immunoblot of SALL4 degradation in Lenti-x 293 CRBN-/- cells expressing human CRBN variants; format: cell-based
T1 construct: expressed in transfected cells; host or cells: Lenti-x 293 CRBN CRISPR KO (CRBN-/-) cells stably expressing human SALL4, transiently transfected with FLAG-CRBN variants

SALL4^G416A = target: T2, SALL4^G416A (Homo sapiens, UniProt Q9UJQ4, G416A); experiment: SALL4 MFI by high content imaging, XCL-1 SALL4^G416A hiPSCs; format: cell-based; details: SALL4^G416A hiPSC clone, 8 h of treatment
T2 construct: parental hiPSCs were engineered to express a homozygous G416A mutation in the endogenous SALL4 locus; endogenous in cells; host or cells: XCL-1 SALL4^G416A hiPSC clone (1E6), CRISPR/Cas9 knock-in at the endogenous locus
Source text: High content imaging analysis of SALL4 immunofluorescence with DAPI counterstaining in hiPSCs. […] Data represent the mean +/− SEM from 2 independent experiments.

SALL4 degradation in human cells expressing CRBN with the V388I mutation (human SALL4): failed to induce SALL4 degradation
effect on SALL4 MFI (SALL4^G416A): unchanged
SMILES: Nc1cccc2c1CN(C1CCC(=O)NC1=O)C2=O (centres unmarked) [Lenalidomide, lenalidomide]
